The experiment deals with primordial follicles (PMF). In words: Ex vivo culture of neonatal mouse ovaries with PM, PMF counting (H&E). It counts as cell-based. The conditions noted are these: ex vivo ovaries of 12 days mice.

With `NP(=O)(O)N(CCCl)CCCl`, the “PMFs on day 7 of culture” value was determined as 75±5.1 (PM 4 hours, with or without 400 nM Tem, FIG. 2A) and 86±8.4 (PM, with or without rAMH, FIG. 2B).

The values above are taken from US20240415820A1, “COMBINATIONS FOR RETAINING FOLLICLES RESERVE” (SHEBA IMPACT LTD., priority 2021, published 2024).
